Sequences of proteins named here, by UniProt entry; tags and fusion partners are left off.
UniProt P47746, whole entry: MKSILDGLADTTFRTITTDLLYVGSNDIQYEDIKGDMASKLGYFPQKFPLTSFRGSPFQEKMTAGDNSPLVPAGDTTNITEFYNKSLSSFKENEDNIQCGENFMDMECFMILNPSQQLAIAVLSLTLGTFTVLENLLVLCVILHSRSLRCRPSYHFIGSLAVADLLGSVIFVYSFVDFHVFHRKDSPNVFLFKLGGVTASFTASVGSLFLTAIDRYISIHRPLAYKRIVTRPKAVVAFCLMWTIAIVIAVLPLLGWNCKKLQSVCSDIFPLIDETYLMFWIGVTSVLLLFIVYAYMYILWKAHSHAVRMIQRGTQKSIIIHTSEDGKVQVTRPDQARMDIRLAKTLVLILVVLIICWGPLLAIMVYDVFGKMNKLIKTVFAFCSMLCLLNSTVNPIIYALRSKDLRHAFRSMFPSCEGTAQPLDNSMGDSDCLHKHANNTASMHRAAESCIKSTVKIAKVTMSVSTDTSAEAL

According to ChEMBL document CHEMBL3992534, “Design, Synthesis, and Biological Evaluation of Novel, Non-Brain-Penetrant, Hybrid Cannabinoid CB1R Inverse Agonist/Inducible Nitric Oxide Synthase (iNOS) Inhibitors for the Treatment of Liver Fibrosis” (J Med Chem, 2017):

Biological target: Cannabinoid receptor 1 (Mus musculus, UniProt P47746)
Assay: Displacement of [3H]CP55940 from mouse brain CB1R expressed in CHOK1 cell membranes
Method in brief: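 Displacement binding isotherms with [3H]-CP55940 as labeled ligand on plasma membranes from CHO-K1 cells expressing CB1R or CB2R. Ki was calculated by the Cheng-Prusoff equation. Values are mean ± SEM of 3 independent experiments, each run in triplicate.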

Row | SMILES | Ki
1 | C/C(N)=N\C(=N/S(=O)(=O)c1ccc(Cl)cc1)N1C[C@H](c2ccccc2)C(c2ccc(Cl)cc2)=N1 | 7.9 nM
2 | C/C(N)=N\C(=N/S(=O)(=O)c1ccc(Cl)cc1)N1C[C@@H](c2ccccc2)C(c2ccc(Cl)cc2)=N1 | 671 nM
